This note sets out measurements from patent publication US10828288B2, “Hydrazone derivatives for the treatment of cancer” (RUTGERS, THE STATE UNIVERSITY OF NEW JERSEY, priority 2015, dated 2020).

The subject of this test is TOV112D (ovarian cancer, p53-R175H) cells. In words: Intracellular [Zn2+]free imaging with FluoZin-3-AM, TOV112D. Format: cell-based, human. Particulars: EBSS/H (−)Ca/Mg.

SMILES strings stand for the structures.

As for `C/C(=N\NC(=S)N1CCC1)c1ccccn1` [ZMC1], the “increase of intracellular [Zn2+]free, compound alone” value (ZMC1 alone without ZnCl2) is “neither cell type showed an increase”. Moreover, the “increase of intracellular [Zn2+]free, with ZnCl2” value (ZMC1 and ZnCl2, two ZnCl2 concentrations) is recorded as “time dependent increase”.
